Biological target: T1, TPH1 (Mus musculus, UniProt P17532)
T1 construct: from tissue; host or cells: living mice (gut/enterochromaffin cells)
T1 sequence (P17532 1-447): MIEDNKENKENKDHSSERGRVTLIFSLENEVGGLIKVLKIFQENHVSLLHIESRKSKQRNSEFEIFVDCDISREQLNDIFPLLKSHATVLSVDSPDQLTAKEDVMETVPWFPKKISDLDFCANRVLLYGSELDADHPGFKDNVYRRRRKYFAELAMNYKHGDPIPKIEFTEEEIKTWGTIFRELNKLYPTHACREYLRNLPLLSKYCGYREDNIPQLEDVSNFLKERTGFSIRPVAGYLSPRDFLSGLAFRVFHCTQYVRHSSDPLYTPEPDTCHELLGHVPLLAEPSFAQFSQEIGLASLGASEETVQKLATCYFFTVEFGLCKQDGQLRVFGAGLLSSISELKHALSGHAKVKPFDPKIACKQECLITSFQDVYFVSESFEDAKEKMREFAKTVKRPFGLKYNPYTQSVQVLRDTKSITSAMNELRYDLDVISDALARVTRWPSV
Experiment: TPH1 inhibitor LX-1031 in phenethylamine-treated mice
Assay type: in vivo
Conditions: LX-1031 50 mg/kg
Description: To study phenethylamine and tryptamine effects on 5-HT production, phenethylamine and tryptamine at a dosage of 2 mg/kg, 5 mg/kg and 10 mg/kg (dissolved in 0.5% CMC-Na, sodium carboxymethyl cellulose) were administered to mice by oral gavage. Mice treated with/without phenethylamine and tryptamine were sacrificed under isoflurane anesthesia. Biological samples including serum, duodenum, ileum, proximal colon and distal colon tissues and luminal contents in each intestinal segments were collected at indicated dosages and times and stored at −80° C. until analysis.
For the fecal pellet water content test, 1.5 mL Eppendorf tubes were pre-weighed and used to collect fecal pellets from mice immediately after defecation. The tubes were then closed to measure wet weight. […] Fecal pellet water content was measured by subtracting the dry weight from the wet weight and normalizing it to the wet pellet mass. Fecal pellets from mice were also counted within 2 h of the defecation frequency test.
Carmine red assay: Mice were administered 300 μL of 6% carmine red solution (prepared by 0.5% methylcellulose) by oral gavage to measure the GI transit time after treatment with phenethylamine at the indicated dosages. […] The total time taken for the appearance of the first red pellet after oral gavage was recorded as gut transit time.

## LX-1031
mice, phenethylamine 10 mg/kg, p<0.01
  phenethylamine-induced increase in 5-HT levels: effectively inhibited the phenethylamine-induced increase in 5-HT levels
phenethylamine-treated mice, p<0.05
  diarrhea-like symptoms (fecal water content, GI transit time): significantly improved diarrhea-like symptoms
